The values that follow come from patent US20090156614A1, “Selective androgen receptor modulators, analogs and derivatives thereof and uses thereof” (priority 2006, published 2009).

The chains behind the UniProt entries cited, without tags or fusion partners.
UniProt P10275, whole entry: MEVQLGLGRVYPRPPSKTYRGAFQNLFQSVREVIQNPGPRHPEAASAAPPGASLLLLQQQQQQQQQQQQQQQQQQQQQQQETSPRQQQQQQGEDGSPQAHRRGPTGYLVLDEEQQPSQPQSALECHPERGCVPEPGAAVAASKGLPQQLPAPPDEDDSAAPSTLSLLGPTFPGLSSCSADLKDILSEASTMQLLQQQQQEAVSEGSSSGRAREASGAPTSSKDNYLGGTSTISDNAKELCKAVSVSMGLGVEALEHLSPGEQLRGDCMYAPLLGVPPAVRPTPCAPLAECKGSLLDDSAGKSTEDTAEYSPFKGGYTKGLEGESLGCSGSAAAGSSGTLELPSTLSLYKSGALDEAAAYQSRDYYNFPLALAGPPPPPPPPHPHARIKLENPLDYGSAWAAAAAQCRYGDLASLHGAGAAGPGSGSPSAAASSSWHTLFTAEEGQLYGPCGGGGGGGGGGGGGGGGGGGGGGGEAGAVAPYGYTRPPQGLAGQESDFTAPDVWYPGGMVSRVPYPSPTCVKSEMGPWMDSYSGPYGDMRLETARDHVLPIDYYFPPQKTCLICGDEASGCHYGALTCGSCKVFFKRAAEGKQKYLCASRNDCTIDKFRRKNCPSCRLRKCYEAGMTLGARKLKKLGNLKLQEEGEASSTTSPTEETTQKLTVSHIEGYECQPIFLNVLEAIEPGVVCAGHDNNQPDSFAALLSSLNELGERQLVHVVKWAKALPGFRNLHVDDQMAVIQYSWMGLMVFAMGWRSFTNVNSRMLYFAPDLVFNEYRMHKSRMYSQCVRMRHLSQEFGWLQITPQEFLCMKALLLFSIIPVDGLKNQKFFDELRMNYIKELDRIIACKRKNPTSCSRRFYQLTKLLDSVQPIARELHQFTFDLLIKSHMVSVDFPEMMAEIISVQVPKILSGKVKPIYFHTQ
UniProt P15207, whole entry S389L: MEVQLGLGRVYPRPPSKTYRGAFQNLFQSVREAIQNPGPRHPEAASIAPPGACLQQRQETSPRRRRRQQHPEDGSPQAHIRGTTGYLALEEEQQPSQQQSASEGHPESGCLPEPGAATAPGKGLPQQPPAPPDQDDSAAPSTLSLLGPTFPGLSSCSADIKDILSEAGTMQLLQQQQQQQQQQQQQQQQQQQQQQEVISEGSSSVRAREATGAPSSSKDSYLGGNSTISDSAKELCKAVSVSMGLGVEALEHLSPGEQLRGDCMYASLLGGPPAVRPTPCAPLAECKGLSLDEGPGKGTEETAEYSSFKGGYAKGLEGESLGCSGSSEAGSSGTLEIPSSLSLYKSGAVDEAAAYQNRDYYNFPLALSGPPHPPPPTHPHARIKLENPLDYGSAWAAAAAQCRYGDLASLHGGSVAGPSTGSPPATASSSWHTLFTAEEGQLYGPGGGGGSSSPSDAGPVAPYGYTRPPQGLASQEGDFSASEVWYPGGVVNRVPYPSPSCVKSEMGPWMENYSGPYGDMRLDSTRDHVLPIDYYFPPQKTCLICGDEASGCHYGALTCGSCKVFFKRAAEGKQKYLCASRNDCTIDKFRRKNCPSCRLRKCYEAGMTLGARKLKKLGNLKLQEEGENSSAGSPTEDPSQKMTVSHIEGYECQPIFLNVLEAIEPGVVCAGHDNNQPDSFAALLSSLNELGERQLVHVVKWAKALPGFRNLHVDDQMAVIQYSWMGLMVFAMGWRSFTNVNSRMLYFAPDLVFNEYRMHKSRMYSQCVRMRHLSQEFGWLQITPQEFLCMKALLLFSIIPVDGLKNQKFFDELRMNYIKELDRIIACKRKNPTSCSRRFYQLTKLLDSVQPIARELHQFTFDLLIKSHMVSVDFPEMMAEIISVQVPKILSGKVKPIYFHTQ

SMILES strings stand for the structures.

The target in assay [1] is hAR (Homo sapiens, UniProt P10275). Description: Cotransfection assay: AR-mediated transcriptional activation in CV-1 cells (luciferase reporter). The class given is cell-based. The settings on record: wild type AR. In general terms: In a reporter assay the amount or activity of a reporter protein is the signal.
Assay [2] has as its target Cytosolic AR (Rattus norvegicus, UniProt P15207). Kind of assay: AR competitive binding assay (3H-MIB displacement, rat ventral prostate cytosol).

Consider `CC(=O)c1ccc(S(=O)(=O)C[C@](C)(O)C(=O)Nc2ccc([N+](=O)[O-])c(C(F)(F)F)c2)cc1`, for which the “in vitro functional activity (agonist / partial agonist / antagonist)” value in assay [1] is reported as “agonist”. Besides, the Ki in assay [2] was 9.3 nM.

Usually Ki stands for the equilibrium dissociation constant of an inhibitor or competing ligand from its target.
